Literature values in patent US20150376254A1, “GAMMA-MSH ANALOGUES” (TXP Pharma GmbH, priority 2014, published 2015).

The chains behind the UniProt entries cited, without tags or fusion partners.
UniProt P32245, whole entry: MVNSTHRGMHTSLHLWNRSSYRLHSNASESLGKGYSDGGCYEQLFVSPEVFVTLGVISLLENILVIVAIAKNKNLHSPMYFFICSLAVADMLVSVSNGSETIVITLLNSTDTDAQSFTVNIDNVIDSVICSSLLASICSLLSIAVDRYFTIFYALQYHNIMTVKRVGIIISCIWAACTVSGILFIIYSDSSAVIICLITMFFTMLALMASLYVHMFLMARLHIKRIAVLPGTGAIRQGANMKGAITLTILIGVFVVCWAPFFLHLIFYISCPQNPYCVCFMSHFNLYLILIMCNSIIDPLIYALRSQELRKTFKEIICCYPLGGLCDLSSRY

Biological target: MC4r (Homo sapiens, UniProt P32245)
Conditions: relative to MC1r and MC5r; J. Med. Chem. 2005, 48, 1839-1848

## γ-MSH
  binding to the MC4r: somewhat better
